From US7211395B2, “Serum albumin binding moieties” (Dyax Corp., priority 2001, dated 2007)

Protein sequences, listed by entry. Tags and fused reporters are not part of them. Residues count along the entry.
UniProt P02768, 25-609: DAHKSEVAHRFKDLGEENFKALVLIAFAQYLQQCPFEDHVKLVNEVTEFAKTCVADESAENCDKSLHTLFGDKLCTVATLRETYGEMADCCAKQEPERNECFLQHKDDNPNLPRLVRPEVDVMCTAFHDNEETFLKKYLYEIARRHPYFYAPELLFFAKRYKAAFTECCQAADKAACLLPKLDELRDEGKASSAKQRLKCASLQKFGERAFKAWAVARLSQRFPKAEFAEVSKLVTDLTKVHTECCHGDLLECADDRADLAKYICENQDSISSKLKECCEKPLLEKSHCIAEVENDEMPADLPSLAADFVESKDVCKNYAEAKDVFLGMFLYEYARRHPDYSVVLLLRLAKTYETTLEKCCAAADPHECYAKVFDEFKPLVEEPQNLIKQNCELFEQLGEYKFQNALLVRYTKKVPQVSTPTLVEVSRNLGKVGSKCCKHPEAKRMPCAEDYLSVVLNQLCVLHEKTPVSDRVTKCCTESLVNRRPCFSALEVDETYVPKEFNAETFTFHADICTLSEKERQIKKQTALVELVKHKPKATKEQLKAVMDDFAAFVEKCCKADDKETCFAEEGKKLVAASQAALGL

Molecular target: T1, human serum albumin (HSA) (Homo sapiens, UniProt P02768)
T1 construct: purchased ICN
Assay: Fluorescence anisotropy, direct binding of fluorescein-labeled peptide to HSA
Details: read-out: KD for Truncated Peptides of DX-236; buffer not stated in Table 2
Experimental: Affinity determinations were made by first labeling polypeptides on the C-terminal end with NHS-fluorescein. Fluorescence anisotropy measurements were performed in 384-well microplates in a volume of 10 μl in binding buffer using a Tecan Polarion fluorescence polarization plate reader. The concentration of fluorescein labeled peptide was held constant (20 nM), and the concentration of HSA was varied. For pH 6.2, 7.1, and 7.4 binding conditions, a 3 mM phosphate, 0.01% TWEEN-20® buffer was used. For pH 9.1 binding conditions, a 3 mM sodium bicarbonate buffer, 0.01% TWEEN-20® nonionic detergent buffer was used. Once NaCi was added to any of these buffers, their pH was adjusted again to achieve the original pH. The binding mixtures were equilibrated for 10 minutes in the microplate at […] prior to performing the measurement. The observed change in anisotropy was fit to the equation below via nonlinear regression to obtain the apparent KD. This equation assumes that the peptide and HSA form a reversible complex with 1:1 stoichiometry.

Substance: Ac-DRIAWYPQHLGGGK—NH2 [SEQ ID NO: 44]
- Kd: 125 µM
